Reference: patent US20240293349A1, “USE OF AN RXR AGONIST IN TREATING DRUG RESISTANT HER2+ CANCERS” (Io Therapeutics, Inc., priority 2022, published 2024)

Tests used:
Assay type in all cases: cell-based
SkBr3 cells = experiment: Inhibition of breast cancer cell growth, DAPI nuclei count; conditions: 6 days
Experimental: (§1) Two breast cancer cell lines, MCF7 and SkBr3, were cultured in the presence of 0, 10, 100, or 1000 nM IRX4204 and 0, 0.1, 1, or 10 μg/ml trastuzumab. MCF7 is an ER^+ PR^+ Her2^− cell line. SkBr3 is an ER^− PR^− Her2^+ cell line. Cells were plated in 96 well optical plates and IRX-4204 and trastuzumab were added 24 hours after cell plating. After a further 6 days, the cells were fixed with 4% paraformaldehyde in phosphate buffered saline (PBS). Nuclei were then stained with DAPI and imaged with the MetaXpress® microscope (Molecular Devices, San Jose, CA). Cell nuclei were segmented and then counted by defining pixel intensity over background and object size, using the algorithm of the MetaXpress® image analysis software. Experimental data points were performed at a minimum of quadruplicate, and results were reported as average cell count ±standard deviation (SD).
To assess if this improved growth inhibition effect was synergistic, the percent inhibition observed for the highest concentrations of the combined therapeutic agents was compared to the percent inhibition that would be expected for the combination based on the observed inhibition of the therapeutic agents used alone, if the agents acting independently, that is, without interaction (see Table 1). That is, PAE=(FE1+((1−FE1)×FE2))×100, where PAE is the predicted additive effect, FE1 is the observed fractional effect of a 1st treatment, and FE2 is the observed fractional effect of a 2nd treatment.
The experiment of Example 1 was repeated using the Her2 kinase inhibitors lapatinib or neratinib instead of trastuzumab at 0, 0.1, 1, or 10 nM. […]
To assess if this improved growth inhibition effect was synergistic, the percent inhibition observed for the highest concentrations of the combined therapeutic agents was compared to the percent inhibition that would be expected for the combination based on the observed inhibition of the therapeutic agents used alone, if the agents acting independently, that is, without interaction (see Tables 2-4).

MCF7 cells = experiment: as above; conditions: Her2− MCF7 cells; IRX4204 0-1000 nM, trastuzumab 0-10 μg/ml; 6 days
Experimental: as §1
The experiment of Example 1 was repeated using the Her2 kinase inhibitors lapatinib or neratinib instead of trastuzumab at 0, 0.1, 1, or 10 nM. Additionally the panel of breast cancer cell lines was expanded to also include the ER^+ PR^+ Her2^+ cell line BT474 and the ER^+ PR^− Her2^+ cell line MDA-MB-361.

[1] = system: HCC1954 human breast cancer cells; experiment: Inhibition of growth of a Her2-targeted agent resistant Her2+ cell line, DAPI nuclei count; conditions: HCC1954, as compared to SkBr3
Experimental: HCC1954 is Her2^+ cancer cell line derived from a ductal carcinoma of the breast. As compared to the SkBr3 cell line used in Example 1 above, it is resistant to neratinib, lapatinib, and tucatinib. It is also resistant to anti-Her2 monoclonal antibodies, such as trastuzumab. […] Among Her2-amplified cell lines, HCC1954 is the most resistant to neratinib with an IC50>100 nM (compared to 7 nM SkBr3 or 20 nM AU565).
HCC1954 human breast cancer cells were seeded at 3000 cells per well in 96-well plates and treated with neratinib [1 or 10 nM] or DMSO (0.1%) in combination with IRX4204 [10, 100, or 1000 nM]. After 6 days of treatment, cells were fixed with 4% paraformaldehyde. Nuclei were stained with DAPI, imaged using ImageXpress® Pico (Molecular Devices) and counted using CellReporterXpress® Analysis Software (FIGS. 4A-B) Each data point represents six replicates. Statistical significance was determined using the Bonferroni-Dunn method of multiple t-tests. Each day was analyzed individually, without assuming a consistent SD (*p<0.01).
The experiment was also conducted using tucatinib or lapatinib in place of neratinib. […] The same general pattern of inhibitory effect is observed as with neratinib. […] As with neratinib, there is clearly a synergistic effect from the combination of these kinase inhibitors with IRX4204.

trastuzumab [Herceptin] was tested, and the “growth inhibitory effect (FIG. 1B), in words” value (SkBr3 cells; Her2+ SkBr3 cells, IRX4204 0-1000 nM, trastuzumab 0-10 μg/ml) was “moderate growth inhibitory effect”, the “% Inhibition” value (SkBr3 cells; SkBr3 cells, IRX4204 1000 nM, Herceptin 1000 ng, alone or combined) was 55.4% and the “DAPI Nuclei Count” value (SkBr3 cells; SkBr3 cells, IRX4204 1000 nM, Herceptin 1000 ng, alone or combined, control 25958) was 11582. The “growth inhibitory effect (FIG. 1A), in words” value (MCF7 cells) was “neither agent had more than marginal effect” and the “resistance of the cell line to the agent used individually” value [1] was “resistant”.
